# Literature values in publication PMC5805549.
# Protein sequences, listed by entry. Tags and fused reporters are not part of them.
# UniProt P30989, whole entry: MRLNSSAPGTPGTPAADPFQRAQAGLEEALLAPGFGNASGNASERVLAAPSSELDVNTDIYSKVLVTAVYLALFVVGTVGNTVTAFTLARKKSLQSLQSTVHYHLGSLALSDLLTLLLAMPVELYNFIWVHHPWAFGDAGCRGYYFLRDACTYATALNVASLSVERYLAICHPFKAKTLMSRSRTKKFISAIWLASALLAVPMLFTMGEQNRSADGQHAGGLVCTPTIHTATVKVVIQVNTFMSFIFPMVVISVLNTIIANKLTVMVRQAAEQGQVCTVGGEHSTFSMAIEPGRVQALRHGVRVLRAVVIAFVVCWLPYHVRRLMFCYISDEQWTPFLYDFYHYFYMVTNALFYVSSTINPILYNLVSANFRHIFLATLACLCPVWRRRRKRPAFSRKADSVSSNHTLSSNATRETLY
# pKd: −log10 of the molar value.
# Molecular target: NTSR1 (Homo sapiens) (UniProt P30989)
substance,measurement,value
neurotensin (from UniProt P30990),pKd,9.70
